Only a part is listed here, and it is no random draw. Some results for these compounds are left out of this collection, so the calls shown say nothing about other tests. The source made the active and inactive calls.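 How the source made its calls: active means percent inhibition above the average of all tested compounds plus 3 SD, set per screening campaign (cut at about 16% in these data); inactive means the rest.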

Protein sequences, listed by entry. Tags and fused reporters are not part of them.
UniProt P14735, whole entry: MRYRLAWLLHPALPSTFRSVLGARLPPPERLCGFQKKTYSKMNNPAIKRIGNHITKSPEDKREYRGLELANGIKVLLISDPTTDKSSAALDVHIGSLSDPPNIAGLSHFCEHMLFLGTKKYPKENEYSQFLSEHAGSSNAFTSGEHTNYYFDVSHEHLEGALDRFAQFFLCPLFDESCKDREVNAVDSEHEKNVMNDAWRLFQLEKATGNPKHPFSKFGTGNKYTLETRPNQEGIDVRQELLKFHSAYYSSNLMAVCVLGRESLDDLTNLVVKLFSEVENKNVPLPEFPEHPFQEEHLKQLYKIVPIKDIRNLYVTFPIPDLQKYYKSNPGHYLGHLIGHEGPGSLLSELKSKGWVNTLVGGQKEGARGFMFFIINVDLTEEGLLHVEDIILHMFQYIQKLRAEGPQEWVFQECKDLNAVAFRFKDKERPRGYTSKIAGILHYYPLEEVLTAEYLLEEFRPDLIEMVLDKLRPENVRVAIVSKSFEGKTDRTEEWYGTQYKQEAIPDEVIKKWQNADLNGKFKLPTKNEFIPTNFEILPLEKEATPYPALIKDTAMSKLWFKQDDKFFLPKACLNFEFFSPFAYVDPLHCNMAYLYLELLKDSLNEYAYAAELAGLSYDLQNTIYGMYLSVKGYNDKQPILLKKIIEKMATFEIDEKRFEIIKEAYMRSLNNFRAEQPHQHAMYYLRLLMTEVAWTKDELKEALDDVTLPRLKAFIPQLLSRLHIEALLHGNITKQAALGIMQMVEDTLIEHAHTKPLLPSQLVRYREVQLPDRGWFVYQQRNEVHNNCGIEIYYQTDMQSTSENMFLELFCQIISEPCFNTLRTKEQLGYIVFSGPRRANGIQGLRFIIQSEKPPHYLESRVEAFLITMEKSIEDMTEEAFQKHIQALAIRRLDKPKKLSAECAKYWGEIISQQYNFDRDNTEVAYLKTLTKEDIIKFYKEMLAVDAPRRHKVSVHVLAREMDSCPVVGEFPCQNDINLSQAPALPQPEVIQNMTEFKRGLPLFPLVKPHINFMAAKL

The target of this test is Insulin-degrading enzyme (Homo sapiens) (UniProt P14735). Nature of the test: cellular IDE Abeta-cleavage inhibition – fluorescence polarization, HEK cells, FAbetaB substrate, primary screen (AID 434962).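 Further: IDE supplied by intact live HEK cells; FP after avidin binding of uncleaved biotin substrate so inhibition keeps polarization high; 0% = DMSO wells and 100% = 60 µM reference IDE inhibitor Ii1.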 Particulars: at 5.59 µM, stronger effect = higher value. On the technique in general: Fluorescence polarisation rises when a labelled molecule tumbles more slowly, as on binding a larger partner.
In the case of `O=C(NCC1(N2CCCCC2)CCCCC1)c1cccc(Cl)c1`, the inhibition was inactive: 2.92%. Turning to `COc1ccc(Cl)cc1C(=O)NCC1(N(C)C)CCCCC1`, the inhibition is inactive: 0.35%.

Regarding `COc1cccc(C(=O)NCC2(N3CCCCC3)CCCCC2)c1`, the inhibition was inactive: 2.67%. For the compound `COc1cc(C(=O)NCC2(N(C)C)CCCCC2)c([N+](=O)[O-])cc1OC`, the inhibition was inactive: -0.23%.

For `CN(C)C1(CNC(=O)c2ccc(Br)cc2)CCCCC1`, the inhibition was inactive: -1.49%. Under `CC(C)Oc1ccc(C(=O)NCC2(N(C)C)CCCCC2)cc1` stands inactive: 0.28%; under `CN(C)c1cccc(C(=O)NCC2(N(C)C)CCCCC2)c1`, inactive: 1.23%; under `COc1ccc(Br)c(C(=O)NCC2(N3CCCCC3)CCCCC2)c1`, inactive: 2.3%. Then `O=C(OC1CN2CCC1CC2)C(CO)(c1ccccc1)c1ccccc1` (centres undefined), with inactive: 0.64%; and `Cc1ccc(C(=O)NCC2(N3CCCCC3)CCCCC2)cc1`, with inactive: -1.57%. Under `COc1cc(SC)ccc1C(=O)NCC1(N(C)C)CCCCC1` stands inactive: 1.98%; under `CCN(CC)CC(C)C(C)OC(=O)C(O)(c1ccccc1)c1ccccc1` (centres undefined), inactive: -2.28%. Regarding `CC(C)N1C(=O)CC2(CCN(CCOC(=O)C(O)(c3ccccc3)c3ccccc3)CC2)C1=O`, the inhibition is inactive: -2%. As for `CN1[C@@H]2CC[C@H]1CC(OC(=O)C(O)(c1ccccc1)c1ccccc1)C2` (some centres undefined), the inhibition was inactive: 2.04%.

Consider `O=C(NCC1(N2CCCCC2)CCCCC1)c1cc([N+](=O)[O-])ccc1Cl`, for which the inhibition was inactive: 6.53%.

Consider `COc1ccc(C(=O)NCC2(N(C)C)CCCCC2)cc1`, for which the inhibition was inactive: -0.27%. As to `O=C(NCC1(N2CCCCC2)CCCCC1)c1cccc(Br)c1`, the inhibition is inactive: -4.24%.

Consider `CCN1CCCC(OC(=O)C2(O)c3ccccc3C=Cc3ccccc32)C1` (centres undefined), for which the inhibition is inactive: -1.26%.

Take `Cc1cc(C(=O)NCC2(N3CCCCC3)CCCCC2)ccc1[N+](=O)[O-]`: the inhibition is inactive: 3.58%. For `O=C(NCC1(N2CCCCC2)CCCCC1)c1cc(F)c(F)cc1Cl`, the inhibition is inactive: -2.52%. Under `C=CCN1CCN(CCOC(=O)C(O)(c2ccccc2)c2ccccc2)CC1` stands inactive: 7.81%; under `CN(C)c1ccc(C(=O)NCC2(N(C)C)CCCCC2)cc1`, inactive: 4.56%. As to `CN(C)C1CCCC1OC(=O)C(O)(c1ccccc1)c1ccccc1` (centres undefined), the inhibition was inactive: -3.79%.

With `Cc1ccccc1C(=O)NCC1(N2CCCCC2)CCCCC1`, the inhibition is inactive: 7.15%.

Broadly, the inhibition is the relative decrease from the control value, in per cent.

Values taken from PubChem BioAssay AID434962 (The Scripps Research Institute Molecular Screening Center, 2010).
